Assay results: paper PMC7845544 (Frontiers in Pharmacology, 2021)
Read-outs that look alike come from different tables or passages of the source. Values belong to the substance of their own block, whether it stands above or below them.

Chains of the proteins cited; added tags and fusions are not shown. Residues count along the entry.
UniProt P22888, 27-699: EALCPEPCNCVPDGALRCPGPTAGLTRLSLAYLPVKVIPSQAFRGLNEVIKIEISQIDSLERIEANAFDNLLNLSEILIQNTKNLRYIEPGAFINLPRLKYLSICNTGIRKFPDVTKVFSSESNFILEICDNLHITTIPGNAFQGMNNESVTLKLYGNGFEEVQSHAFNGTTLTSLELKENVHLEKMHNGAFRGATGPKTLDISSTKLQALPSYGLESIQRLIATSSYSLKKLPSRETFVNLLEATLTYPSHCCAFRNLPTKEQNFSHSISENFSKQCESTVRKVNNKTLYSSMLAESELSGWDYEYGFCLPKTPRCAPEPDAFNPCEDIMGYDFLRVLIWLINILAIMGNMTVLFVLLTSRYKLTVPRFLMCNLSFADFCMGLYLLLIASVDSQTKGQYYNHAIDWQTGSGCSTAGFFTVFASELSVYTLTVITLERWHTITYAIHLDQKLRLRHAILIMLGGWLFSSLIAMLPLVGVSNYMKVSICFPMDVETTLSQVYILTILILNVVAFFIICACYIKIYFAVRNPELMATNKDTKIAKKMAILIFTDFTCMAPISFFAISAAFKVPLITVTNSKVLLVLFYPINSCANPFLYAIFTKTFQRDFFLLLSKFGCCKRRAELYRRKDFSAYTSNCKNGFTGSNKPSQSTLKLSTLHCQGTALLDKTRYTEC

Assays:
[1] = target: T1, hTSHR (Homo sapiens, UniProt P16473); assay: cAMP (HTRF) in CHO cells transfected with hTSHR; assay type: cell-based; details: mean ± SEM
T1 construct: expressed in transfected cells
Method: (§1) Chinese hamster ovary (CHO) cells transfected with hFSHR, hLHR or hTSHR were grown as described previously ([Kelton et al., 1992]; [Persani et al., 1993]; [Yu et al., 2014]). In brief, CHO-hFSHR and CHO-hTSHR were maintained in DMEM/F12 + 10% FBS in T150 culture flasks. The cells were cultured until they reached 70–80% confluence (three days) and were then used for assays or passaged. CHO-hLHR ([van de Lagemaat et al., 2009]; [Sriraman et al., 2014]) was cultured in MEM alpha (++) +10% FBS and G418, and passaged every three days. CHO-hFSHR or −hLHR or −hTSR cells (2,500/well) were plated in 5 µL of phenol red free DMEM/F12 + 1% FBS in 384 well solid white low volume plates (Greiner 784075) by Multidrop. Compounds were tested in the presence or absence of an EC20 concentration of hFSH (0.16 pM), hCG (0.2 pM) or hTSH (13 pM), in their corresponding assays. […] The plates were incubated at 37°C for 1 h. After the incubation period, cAMP was measured by HTRF® (homogeneous time-resolved fluorescence) assay (CisBio, Bedford, MA). […] An increase in cellular cAMP leads to a decrease in fluorescence resonance energy transfer, which is detectable as a decrease in the emission at 665 nm, measured by Envision fluorescence reader (PerkinElmer, Waltham, MA). The readout was calculated fluorescence ratio (665/620 nm). […]

[2] = target: T2, hLH/CGR (Homo sapiens, UniProt P22888); assay: cAMP (HTRF) in CHO cells transfected with hLH/CGR; assay type: cell-based; details: maximal cAMP vs maximal response of hCG; mean ± SEM
T2 construct: expressed in transfected cells
Method: Chinese hamster ovary (CHO) cells transfected with hFSHR, hLHR or hTSHR were grown as described previously ([Kelton et al., 1992]; [Persani et al., 1993]; [Yu et al., 2014]). In brief, CHO-hFSHR and CHO-hTSHR were maintained in DMEM/F12 + 10% FBS in T150 culture flasks. The cells were cultured until they reached 70–80% confluence (three days) and were then used for assays or passaged. CHO-hLHR ([van de Lagemaat et al., 2009]; [Sriraman et al., 2014]) was cultured in MEM alpha (++) +10% FBS and G418, and passaged every three days. CHO-hFSHR or −hLHR or −hTSR cells (2,500/well) were plated in 5 µL of phenol red free DMEM/F12 + 1% FBS in 384 well solid white low volume plates (Greiner 784075) by Multidrop. […] The plates were incubated at 37°C for 1 h. After the incubation period, cAMP was measured by HTRF® (homogeneous time-resolved fluorescence) assay (CisBio, Bedford, MA). In brief, conditioned media were incubated with cryptate-labeled cAMP antibody and d2-labeled cAMP in lysis buffer for 1 h. Free cAMP produced by cells competes with cAMP-d2 for binding to the anti-cAMP cryptate. An increase in cellular cAMP leads to a decrease in fluorescence resonance energy transfer, which is detectable as a decrease in the emission at 665 nm, measured by Envision fluorescence reader (PerkinElmer, Waltham, MA). The readout was calculated fluorescence ratio (665/620 nm). […]

[3] = tested on: rat granulosa cells; assay: Rat granulosa cell assay measuring secreted estradiol; assay type: cell-based; details: 24 h, mean ± SEM
Method: All animals were maintained and handled under IACUC approved procedures at the respective institutions providing contracted service for TocopheRx, following procedures previously approved by local (MA, United States) IACUC reviews ([Sriraman et al., 2014]; [Yu et al., 2014]). Ovarian follicular granulosa cells were isolated from rats implanted with DES pellets (1 mg/day; 7-days release) at ChemPartner (Shanghai, China). The pellets were implanted subcutaneously on 22 day old rats with trochar, employing aseptic techniques after isoflurane anesthesia. Animals were euthanized on post-op day 3, ovaries were excised, cleaned, and granulosa cells were isolated by repeated disruption of the follicle as described previously. Granulosa cells isolated from four to five rats were used to culture one 96-well plate and an equal number of cells was plated in each well. The cells were cultured overnight at 37°C in media containing 5% FBS.
After overnight culture, the media was replaced with serum free media containing 0.1% BSA and 100 nM androstenedione. […] A dose response curve with a 4-fold dilution of rec-hFSH starting at highest concentration of 5 nM and a two-fold dilution of small molecule FSHR-AA starting at highest concentration of 10 μM at eight different concentrations was tested. After 24 h of treatment, supernatant was collected and estradiol concentration was determined by ELISA (DRG, Mountainside, NJ, United States). The optical densities of the estradiol ELISA were measured by Spectramax (Sunnyvale, CA, United States). The values were analyzed in Microsoft Excel and Graphpad Prism (San Diego, CA, United States).

[4] = tested on: human granulosa cells; assay: Estradiol production by human granulosa cells from individual patients by diagnosis (NOR, ARA, PCOS); assay type: cell-based; details: FSH (20 nM) or TOP5300 (400 nM)
Method: Human granulosa cells were prepared from the spent follicular fluid of women undergoing IVF treatment at Boston IVF Center (Waltham, MA, United States) and at Family Fertility Center (Baylor College of Medicine, Houston, TX, United States) following methods previously established ([Breckwoldt et al., 1996]; [Amsterdam et al., 2003]). Institutional review board approval and informed consent from the patients were obtained before collecting the follicular fluid samples. In brief, red blood cells (RBCs) in the follicular aspirate were lyzed using RBC lysis buffer (Quality Biological Inc., Gaithersburg, MD, United States), and washed extensively with PBS and DMEM/F12 containing 5% FBS, fungizone, and the antibiotics penicillin (100 IU/ml) and streptomycin (100 μg/ml). Subsequently, cells from the aspirate were plated in T75 flasks, cultured for 7 days with fresh media being replaced every other day. At the end of the culture period, cells were released from the flask by trypsin and transferred to 96-well plates (5,000 cells/well, Greiner Bio-One). Following 48 h of culture, media in culture wells was replaced with serum free media containing 0.1% BSA and 10^−7 M androstenedione. Following 24 h of serum starvation, cells were stimulated with fresh media (0.1% BSA, 10^−7 M androstenedione) with FSH or compound for 48 h. Supernatant was collected and stored at −80C for determination of estradiol by ELISA.
Clinical definitions of patient sub-populations for patients at Texas Fertility followed guidelines outlined by the Practice Committee of the American Society for Reproductive Medicine ([Practice Committee of the American Society for Reproductive Medicine, 2015]). […] Advanced reproductive age (ARA) was defined as woman of 35 years old or greater in age, based on the definition of advanced maternal age by Society for Maternal-Fetal Medicine. […]

[5] = tested on: immature SD rats; assay: Superovulation assay in immature rats; assay type: in vivo, rat; details: low dose of FSH 0.29 IU
Method: Immature SD rats and B6C3F1 mice (both 18–21 day old females) were purchased from Charles-River laboratories (Wilmington, MA, United States and Shanghai, China). All animals were treated in accordance to Chempartner (Shanghai, China) or Embryotech (Haverhill, MA, United States) IACUC approved animal protocols. The animals were provided water and food ad libitum and housed under 12 h dark and 12 h light schedules.
Immature rats and mice were used to investigate the ability of the small molecules to induce follicular development and support ovulation as described elsewhere ([Steelman and Pohley, 1953]) with modifications ([Sriraman et al., 2014]). Briefly, as reference standard, rh-follitropin-α (rec-hFSH [0.29 or 1.16 IU]) was administered as a subcutaneous injection every 12 h for a total of four doses, and r-hCG [1.75 IU] was provided with FSH at first and last injections. […] The isolated COC’s were treated with hyaluronidase and the total number of ovulated oocytes was determined microscopically.
Rats or mice that received small molecule were also treated with hCG (1.75 IU × 2) and low dose FSH [0.29 IU × 4], following methods we previously established ([Sriraman et al., 2014]). […] Plasma concentrations of FSHR-AA were measured during superovulation assays, except for experiments where plasma was collected for estradiol measurements.

[6] = target: T3, hFSHR (Homo sapiens, UniProt P23945); assay: cAMP (HTRF) in CHO cells transfected with hFSHR; assay type: cell-based; details: maximal cAMP vs maximal response of protein ligand FSH; mean ± SEM
T3 construct: expressed in transfected cells
T3 sequence (P23945 18-695): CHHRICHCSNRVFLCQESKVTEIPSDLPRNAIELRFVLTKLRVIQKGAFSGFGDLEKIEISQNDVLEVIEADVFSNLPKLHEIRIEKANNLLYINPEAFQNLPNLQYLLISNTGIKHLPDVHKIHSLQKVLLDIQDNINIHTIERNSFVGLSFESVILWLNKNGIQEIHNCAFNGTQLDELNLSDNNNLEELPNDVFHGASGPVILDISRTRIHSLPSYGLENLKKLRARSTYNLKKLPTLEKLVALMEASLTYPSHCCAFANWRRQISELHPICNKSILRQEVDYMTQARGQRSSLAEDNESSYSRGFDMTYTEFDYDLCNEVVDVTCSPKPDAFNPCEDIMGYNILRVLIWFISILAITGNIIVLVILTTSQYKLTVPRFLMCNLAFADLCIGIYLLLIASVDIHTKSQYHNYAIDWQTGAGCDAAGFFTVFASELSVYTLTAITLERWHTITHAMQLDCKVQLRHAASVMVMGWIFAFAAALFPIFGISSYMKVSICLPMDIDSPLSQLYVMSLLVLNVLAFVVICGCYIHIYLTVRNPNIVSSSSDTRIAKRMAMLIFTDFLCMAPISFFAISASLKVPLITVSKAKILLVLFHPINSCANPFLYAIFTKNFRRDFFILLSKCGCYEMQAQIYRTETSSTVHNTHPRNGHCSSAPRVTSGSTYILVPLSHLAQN
Method: as §1

EC50 ([1]; compounds in presence of EC20 ligand (Figure 1 legend)): 0.0827 nM | % Response, CHO-hTSHR ([1]; maximal cAMP vs maximal response of TSH): 100%
Substance: TSH: thyroid stimulating hormone, protein ligand standard of the CHO-hTSHR assay

% Response, CHO-hLH/CGR [2]: 100%
Substance: hCG: human chorionic gonadotropin, bulk preparation of Merck KGaA (choriogonadotropin-α)

EC50 ([3]; +EC20 FSH, read-out: EC50 (M), estradiol, +EC20 FSH): 5.1e-11 M | EC50 ([3]; No FSH, read-out: EC50 (M), estradiol, No FSH): 5.35e-11 M | % Response, CHO-hFSHR [6]: 100%
Substance: hFSH: Recombinant human FSH, bulk preparation of Merck KGaA (follitropin-α)
% Response, estradiol, +EC20 FSH ([3]; +EC20 FSH): 100% | % Response, estradiol, No FSH ([3]; No FSH): 100% | Estradiol (pg/ml), ARA (n = 6) ([4]; advanced reproductive age, mean ± SD): 4,818 + 8,928 pg/ml | Estradiol (pg/ml), NOR (n = 2) ([4]; normal ovarian reserve, mean): 7,089 pg/ml | Estradiol (pg/ml), PCOS (n = 4) ([4]; polycystic ovarian disease, mean ± SD): 613 ± 1,133 pg/ml | activity in superovulation assays relative to FSH 1.16 IU [5]: 20%
